By UniProt entry, the sequences of proteins in these tests, tags left out. Where a name states a change or a piece, a line headed by the entry shows the natural chain unless it says otherwise.
UniProt P22303: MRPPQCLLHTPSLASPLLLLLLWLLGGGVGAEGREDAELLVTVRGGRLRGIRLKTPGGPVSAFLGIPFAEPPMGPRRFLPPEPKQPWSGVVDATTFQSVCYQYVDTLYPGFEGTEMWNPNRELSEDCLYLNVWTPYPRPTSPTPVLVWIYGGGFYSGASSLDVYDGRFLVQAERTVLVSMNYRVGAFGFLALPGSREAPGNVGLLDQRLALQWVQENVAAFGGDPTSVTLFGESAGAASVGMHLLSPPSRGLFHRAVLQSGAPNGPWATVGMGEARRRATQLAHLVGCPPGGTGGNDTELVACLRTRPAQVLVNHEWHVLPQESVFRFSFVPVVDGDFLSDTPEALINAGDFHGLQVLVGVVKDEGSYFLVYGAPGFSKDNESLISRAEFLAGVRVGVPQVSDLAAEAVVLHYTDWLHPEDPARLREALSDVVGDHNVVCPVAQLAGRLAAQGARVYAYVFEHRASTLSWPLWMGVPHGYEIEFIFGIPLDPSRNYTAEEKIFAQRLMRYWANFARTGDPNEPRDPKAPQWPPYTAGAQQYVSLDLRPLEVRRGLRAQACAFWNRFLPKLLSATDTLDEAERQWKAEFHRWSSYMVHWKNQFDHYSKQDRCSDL

According to ChEMBL document CHEMBL1641540, “Peripheral site ligand-oxime conjugates: A novel concept towards reactivation of nerve agent-inhibited human acetylcholinesterase” (2011):

Key:
[1] = target: Acetylcholinesterase (Homo sapiens) (UniProt P22303); assay: Reactivation of tabun-inhibited human AChE assessed as active enzyme at 10^-5 M after 30 mins by Ellman method; set-up: scale not given: the % may be the effect or the level left
[2] = target: Acetylcholinesterase (Homo sapiens) (UniProt P22303); assay: Reactivation of sarin-inhibited human AChE assessed as active enzyme at 10^-5 M after 30 mins by Ellman method; set-up: scale not given: the % may be the effect or the level left
[3] = target: Acetylcholinesterase (Homo sapiens) (UniProt P22303); assay: Reactivation of nerve agent VX-inhibited human AChE assessed as active enzyme at 10^-5 M after 30 mins by Ellman method

## O/N=C/c1cc[n+](CCOCCOCCOCCCl)cc1
[1]
  Activity: < 5%

## O/N=C/c1cc[n+](CCOCCOCCCl)cc1
[1]
  Activity: < 5%

## O/N=C/c1cc[n+](CCOCCN2CCC(OC(c3ccccc3)c3ccccc3)CC2)cc1
[2]
  Activity: 22%
[1]
  Activity: < 5%
[3]
  Activity: Active

## O/N=C/c1cc[n+](CCOCCOCCN2CCC(OC(c3ccccc3)c3ccccc3)CC2)cc1
[2]
  Activity: 23%
[1]
  Activity: < 5%
[3]
  Activity: Active

## O/N=C/c1cc[n+](CCOCCCl)cc1
[1]
  Activity: < 5%

## O/N=C/c1cc[n+](CCOCCOCCOCCN2CCC(OC(c3ccccc3)c3ccccc3)CC2)cc1
[2]
  Activity: 36%
[1]
  Activity: < 5%
[3]
  Activity: Active

Active and inactive are the calls of the source. The rule behind the calls is not given here.
